Data from PubChem BioAssay AID588405 (Sanford-Burnham Center for Chemical Genomics, 2011).
Only a part is listed here, and it is no random draw. Calls of active or inactive are those of the source.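 Rule for the calls: active = inhibition of at least 50% at 20 µM; inactive = the rest.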

assay: Peg3 promoter-driven luciferase inhibitors, primary screen, cell-based, HeLa, luciferase luminescence (AID 588405); details: HeLa PEG-Prom luciferase reporter, overnight, at 20 µM, active compounds read high

Row | Compound | inhibition
1 | COc1cccc(C(c2nnnn2C(C)(C)C)N2CCC(n3c(=O)[nH]c4ccccc43)CC2)c1OC (stereo not given) | inactive: 34.4%
2 | CCOC(=O)N1CCC(Nc2ccc(C)cc2)CC1 | inactive: 3.76%
3 | N/C(=N\O)c1c(N)no[n+]1[O-] | inactive: 4.74%
4 | O=C(OC1CN2CCC1CC2)C1c2ccccc2C=Cc2ccccc21 (stereo not given) | inactive: -1.53%
5 | O=c1[nH]c2ccccc2n1C1CCN(C(c2cccs2)c2nnnn2C2CCCC2)CC1 (stereo not given) | inactive: 38.9%
6 | CCCCn1nnnc1C(c1cccc(OC)c1OC)N1CCC(n2c(=O)[nH]c3ccccc32)CC1 (stereo not given) | inactive: 40%
7 | CCCCn1nnnc1C(c1ccccc1)N1CCC(n2c(=O)[nH]c3ccccc32)CC1 (stereo not given) | inactive: 46%
8 | COc1cc(C(=O)NCC2(N3CCOCC3)CCCCC2)cc(OC)c1C | inactive: 1.65%
9 | O=C(NCC1(N2CCOCC2)CCCCC1)c1cc(Br)ccc1Cl | inactive: -9.63%
10 | O=c1[nH]c2ccccc2n1C1CCN(C(c2cccs2)c2nnnn2C2CCCCC2)CC1 (stereo not given) | active: 55.6%
11 | COc1ccc(C(=O)NCC2(N3CCOCC3)CCCCC2)cc1OC | inactive: 8.77%
12 | O=c1[nH]c2ccccc2n1C1CCN(C(c2ccnc3ccccc23)c2nnnn2C2CCCC2)CC1 (stereo not given) | inactive: 45.1%
13 | CN(C)C1(CNC(=O)c2cccc(C#N)c2)CCCCC1 | inactive: 1.17%
14 | c1ccc(CN2CCC(Nc3ccccc3)CC2)cc1 | inactive: -1.82%
15 | Cc1cc(N(CCCl)CCCl)ccc1C=O | inactive: 0.22%
16 | O=c1[nH]c2ccccc2n1C1CCN(C(c2ccccc2)c2nnnn2C2CCCC2)CC1 (stereo not given) | inactive: 17.4%
17 | CCCN1CCC(Nc2cc(OC)cc(OC)c2)CC1 | inactive: 13.6%
18 | CC(C)(C)n1nnnc1C(c1cccc2ccccc12)N1CCC(n2c(=O)[nH]c3ccccc32)CC1 (stereo not given) | active: 65.7%
19 | N#Cc1ccc(C(=O)NCC2(N3CCCCC3)CCCCC2)cc1 | inactive: -30.1%
20 | CC(C)(C)OC(=O)N1CCC(N(C(=O)c2ccccc2)c2ccc(Cl)cc2)CC1 | inactive: 21.7%

Row | Compound | inhibition
21 | Cc1ccccc1NC1(C#N)CCN(Cc2ccccc2)CC1 | inactive: 9.02%
22 | CC(C)(C)n1nnnc1C(c1ccnc2ccccc12)N1CCC(n2c(=O)[nH]c3ccccc32)CC1 (stereo not given) | inactive: 35.9%
23 | CCN1CCC(Nc2cccc(F)c2)CC1 | inactive: 9.77%
24 | COc1ccc(C(c2nnnn2C2CCCCC2)N2CCC(n3c(=O)[nH]c4ccccc43)CC2)cc1 (stereo not given) | inactive: 21.9%
25 | O=C(NCC1(N2CCCCC2)CCCCC1)c1ccco1 | inactive: 2.08%
26 | Cn1c(=O)[nH]cc(N(CCCl)CCCl)c1=O | inactive: 20.8%
27 | CN(C)c1ccc(C(=O)NCC2(N3CCCCC3)CCCCC2)cc1 | inactive: 21.2%
28 | CC(=O)N(c1ccccc1)C1CCNCC1 | inactive: 7.05%
29 | COc1cccc(C(c2nnnn2C2CCCCC2)N2CCC(n3c(=O)[nH]c4ccccc43)CC2)c1OC (stereo not given) | active: 60.9%
30 | CCC(c1nnnn1C1CCCCC1)N1CCC(n2c(=O)[nH]c3ccccc32)CC1 (stereo not given) | inactive: 9.78%
31 | O=c1[nH]c2ccccc2n1C1CCN(C(c2ccnc3ccccc23)c2nnnn2C2CCCCC2)CC1 (stereo not given) | inactive: 29.3%
32 | COc1cc(OC)cc(C(=O)NCC2(N3CCCCC3)CCCCC2)c1 | inactive: -8.39%
33 | Cc1ccc(C(=O)NCC2(N3CCCCC3)CCCCC2)o1 | inactive: 15.9%
34 | Fc1ccccc1NC1CCN(Cc2ccccc2)CC1 | inactive: 13.1%
35 | Cc1ccc(NC2(C#N)CCN(Cc3ccccc3)CC2)cc1 | inactive: -12.9%
36 | COc1cccc(C(=O)N(c2cc(C)cc(C)c2)C2CCN(C(=O)OC(C)(C)C)CC2)c1 | inactive: 26%
37 | COc1cc(OC)cc(C(=O)NCC2(N3CCOCC3)CCCCC2)c1 | inactive: -2.49%
38 | COc1cccc(C(c2nnnn2C2CCCC2)N2CCC(n3c(=O)[nH]c4ccccc43)CC2)c1OC (stereo not given) | inactive: 47.4%
39 | CCC(CO)(C(=O)OC1CN2CCC1CC2)c1ccccc1 (stereo not given) | inactive: 7.13%
40 | CN1CCC(Nc2ccc(Cl)cc2)CC1 | inactive: 4.6%

Row | Compound | inhibition
41 | CCOc1ncccc1C(=O)NCC1(N2CCOCC2)CCCCC1 | inactive: 7.98%
42 | CN1CCC(Nc2ccc(F)c(Cl)c2)CC1 | inactive: 11.8%
43 | CC(C)(C)OC(=O)N1CCC(Nc2ccccc2)CC1 | inactive: -20.8%
44 | O=C(O)C1(Nc2ccccc2)CCN(Cc2ccccc2)CC1 | inactive: 1.82%
45 | CCCOc1ccc(C(=O)NCC2(N(C)C)CCCCC2)cc1 | inactive: 11.3%
46 | O=c1[nH]c2ccccc2n1C1CCN(C(c2cc3ccccc3o2)c2nnnn2C2CCCC2)CC1 (stereo not given) | inactive: -3.48%
47 | O=c1[nH]c2ccccc2n1C1CCN(C(c2ccccc2OC(F)(F)F)c2nnnn2C2CCCCC2)CC1 (stereo not given) | inactive: 24.7%
48 | O=C(NCC1(N2CCCCC2)CCCCC1)c1ccc(Cl)nc1 | inactive: 26.9%
49 | Cc1cc(C)cc(N(C(=O)c2ccccc2)C2CCN(C(=O)OC(C)(C)C)CC2)c1 | inactive: 14.9%
50 | O=C(NCC1(N2CCOCC2)CCCCC1)c1cc2ccccc2o1 | inactive: 11.6%
51 | O=c1[nH]c2ccccc2n1C1CCN(C(c2cc3ccccc3o2)c2nnnn2C2CCCCC2)CC1 (stereo not given) | active: 79.1%
52 | O=C(OC1CN2CCC1CC2)C1c2ccccc2Oc2ccccc21 (stereo not given) | inactive: 10.2%
53 | O=C(NCC1(N2CCCCC2)CCCCC1)c1ccc(Cl)s1 | inactive: 9.51%
54 | N#CC1(Nc2ccccc2)CCN(Cc2ccccc2)CC1 | inactive: 6.86%
55 | COc1ccc(Cl)cc1C(=O)NCC1(N2CCOCC2)CCCCC1 | inactive: 6.1%
56 | CCOC(=O)N1CCC(Nc2ccc(OC)cc2)CC1 | inactive: 9.37%
57 | CCCCn1nnnc1C(c1ccc(OC)cc1)N1CCC(n2c(=O)[nH]c3ccccc32)CC1 (stereo not given) | inactive: 18%
58 | COc1ccc(C(=O)NCC2(N3CCCCC3)CCCCC2)cc1 | inactive: 3.79%
59 | CCC(c1nnnn1C1CCCC1)N1CCC(n2c(=O)[nH]c3ccccc32)CC1 (stereo not given) | inactive: 2.94%
60 | CC(C)(C)OC(=O)N1CCC(N(C(=O)c2ccccc2)c2ccc(F)cc2)CC1 | inactive: 6.28%
